# Literature values as cited in patent publication US4499094A, “Derivatives of arene and hetero-arene carboxamides and their use as medicaments” (Pharmuka Laboratoires, priority 1982, dated 1985).
# Tested on: binding sites of (^3 H) diazepam in the brain
# Conditions: cited from earlier work
compound,measurement,setting,value
O=C1CN=C(c2ccccc2Cl)c2cc([N+](=O)[O-])ccc2N1 [clonazepam],affinity for the binding sites of (^3 H) diazepam in the brain (central level),"brain, in words",very strong affinity
same,"classification by decreasing affinity, ""cerebral"" type",rank order,clonazepan>diazepam>Ro-5-4864
